Here are results for 51 compounds from PubChem BioAssay AID2100 (National Center for Advancing Translational Sciences (NCATS), 2009).

“And” between values parts separate entries of the source, which are not always exact repeats. Equal values may be shown once. Only a part is listed here, and it is no random draw. Inconclusive results are not listed. The source made the active and inactive calls. The call rests on the fitted dose curve; in most records, active means well fitted inhibition curve with a large enough effect; inconclusive means small, poorly fitted or top-dose-only effect, or another doubt; inactive means no such curve, though single readings can be large or run the other way.

For this assay, the target named is Lysosomal alpha-glucosidase (Homo sapiens) (UniProt P10253). Put plainly: qHTS Assay for Inhibitors and Activators of Human alpha-Glucosidase Cleavage of Glycogen.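 Further: 0% = full enzyme reaction and -100% = no-enzyme basal signal; the screen sought inhibitors and activators.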 The settings on record: recombinant GAA, glycogen substrate, Amplex Red glucose oxidase fluorescence; at 76.4 µM (top of the series) unless noted. From the text: NIH Chemical Genomics Center [NCGC] NIH Molecular Libraries Probe Production Centers Network [MLPCN] MLPCN Grant: R03 MH084841-01 Assay Submitter (PI): Wei Zheng NCGC Assay Overview: Alpha-glucosidase is responsible for the hydrolysis of terminal, non-reducing 1,4-linked alpha-D-glucose residues, which releases alpha-D-glucose. It is a lysosomal hydrolase that is required for the degradation of a small percentage (1-3%) of cellular glycogen in humans. Deficiency of this enzyme results in glycogen-storage disease type II (GSDII), also referred to as Pompe disease, an autosomal recessive disorder. Structurally normal glycogen is accumulated in the lysosomes and cytoplasm in affected patients, primarily in muscle tissues. Excessive glycogen storage within lysosomes may interrupt normal functioning of other organelles and leads to cellular injury. In turn, this leads to enlargement and dysfunction of the entire organ involved (eg: cardiomyopathy and muscle weakness). It has been reported that the improper folding and trafficking of alpha-glucosidase resulting from genetic mutations may account for a significant number of Pompe patients. […] We optimized this alpha-glucosidase assay in 1536-well plate format for identification of novel small molecule inhibitors or activators with structures other than the sugar analogs in order to develop new pharmacological chaperones. Previous assays of alpha-Glucosidase have utilized a non-natural fluorescent substrate to probe enzyme activity. The present assay measures enzyme activity on glycogen using a coupled-assay system to glucose oxidase.
NCGC Assay Protocol Summary: This is an enzyme assay using glycogen from bovine liver (Sigma catalog #: G0885) as the substrate and recombinant human alpha-glucosidase as the enzyme preparation. Upon hydrolysis of the substrate, the glucose product can be detected using the Amplex Red Glucose Oxidase Assay Kit (Invitrogen catalog #: A22189). The product of this reaction can be read with a fluorescence plate reader with an excitation at 573 nm and an emission at 610 nm. Data were normalized to the controls for basal activity (without enzyme) and 100% activity (with enzyme). The AC50 values were determined from concentration-response data modeled with the standard Hill equation. Assay buffer for enzyme reaction: 50 mM citric acid (titrated with potassium phosphate to pH 5.0), 0.01% Tween-20 (pH 5.0 is an optimal condition for this enzyme assay) Assay buffer for Amplex Red reaction: Tris-HCl, pH 7.5 1536-well assay protocol for the alpha-glucosidase assay: (1) Add 2 ul/well alpha-glucosidase enzyme solution (4 nM final) (2) Add 23 nL compounds in DMSO solution. The final titration was 0.7 nM to 77 uM. (3) Add 1 ul of glycogen substrate solution (30 ug) (4) Incubate at 37 C for 40 min (5) Add 2 ul tris-HCl buffer with Amplex Red reagents (6) Incubate 45 min at room temperature. (7) Detect the assay plate in a ViewLux plate reader (PerkinElmer) with Ex=573 nm and Em=610nm. Keywords: Alpha-glucosidase, Pompe Disease, pharmacological chaperone, chaperone therapy, high throughput screening, alpha-glucosidase inhibitor, MLSMR, MLSCN, NIH Roadmap, qHTS and NCGC
Turning to `O=C(OC1CN2CCC1CC2)c1cccc([N+](=O)[O-])c1` (stereo unspecified), the activity change, negative = inhibition is inactive: -12.1%. As for `CCOC(=O)c1ccc(NC(=O)C(C)(CCl)SC)cc1` (stereo unspecified), the figure is inactive: -5.53%; as for `COc1ccc2nc(NP(=O)(c3ccccc3)c3ccccc3)sc2c1`, inactive: 2.77%; as for `COc1cc(I)ccc1[As](=O)(O)O`, inactive: 2.19%. As for `Cc1c2c(nc3ccccc13)SC(C(Cl)Cl)C2` (stereo unspecified), the figure is inactive: -3.68%; as for `O=C(OC1CN2CCC1CC2)C12CC3CC(CC(C3)C1)C2` (stereo unspecified), inactive: -3.55%; as for `Cc1cc(=O)[nH]c(N[N+](=O)[O-])n1`, inactive: -10.3%.

`COc1ccc(N/C(=N/P(=O)(N2CCOCC2)N2CCOCC2)N2CCOCC2)cc1`: the activity change, negative = inhibition was inactive: -4.64%. As for `Cc1ccc(OP(=O)(Nc2ccc([N+](=O)[O-])cn2)Oc2ccc(C)cc2)cc1`, the figure is inactive: 1.84%. For the compound `Cc1ccc2nc3c(c(C)c2c1)CC(C(Cl)Cl)S3` (stereo unspecified), the activity change, negative = inhibition is inactive: -2.62%. As for `C[As](=O)(O)c1cccc(C(=O)O)c1`, the figure is inactive: 5.96%; as for `O=[As](O)(c1ccc(O)cc1)c1ccccc1O`, inactive: 0.325%. As for `CCN(CC)C(=S)SC(NC=O)C(Cl)(Cl)Cl` (stereo unspecified), the figure is inactive: 1.85%. The result for `CC(C)NC(=O)NP(=O)(Oc1ccccc1)Oc1ccccc1` reads inactive: 9.48%; that for `O=[N+]([O-])c1cc([N+](=O)[O-])c(-c2ccn[nH]2)s1`, inactive: 7.13%; that for `ClCCSc1nnc(-c2cccnc2)o1`, inactive: -10.4%.

Turning to `CC(C)c1ccc(OP(=O)(Nc2ccccn2)Oc2ccccc2F)cc1` (stereo unspecified), the activity change, negative = inhibition is inactive: -0.242%.

As for `CCOP(=O)(Nc1ccccc1)OCC`, the activity change, negative = inhibition is inactive: 3.43% and inactive: 4.06%.

Regarding `Cc1cc(SC(NC(=O)c2ccc(F)cc2)C(Cl)(Cl)Cl)ncn1` (stereo unspecified), the activity change, negative = inhibition is inactive: -12.1%. As for `Cc1ccc(NP(=O)(Oc2ccccc2F)Oc2ccccc2F)nc1`, the figure is inactive: 5.08%; as for `O=P(Nc1nc2ccc(Cl)cc2s1)(c1ccccc1)c1ccccc1`, inactive: 5.6%. For the compound `O=C(O)c1ccccc1[As](=O)(O)O`, the activity change, negative = inhibition was inactive: 1.77%. As for `CC(=O)Nc1ccc([As](=O)(O)O)cc1`, the figure is inactive: -2.56%; as for `Nc1cccc2ccc([As](=O)(O)O)cc12`, inactive: -2.62%; as for `CCN(N=Nc1nonc1N)c1nonc1N`, inactive: -1.22%. As for `O=[N+]([O-])c1cc([N+](=O)[O-])c(CCN2CCOCC2)c([N+](=O)[O-])c1`, the activity change, negative = inhibition was inactive: -10.4%.

For `Clc1ccc(Cl)c(NC2=NCC(CBr)S2)c1` (stereo unspecified), the activity change, negative = inhibition is inactive: -11.8%. Turning to `CN1CCCC(OC(=O)C(c2ccccc2)c2ccccc2)C1` (stereo unspecified), the activity change, negative = inhibition was inactive: 5.37%. The result for `COc1ccccc1OP(=O)(Nc1ccc(C)cn1)Oc1ccccc1OC` reads inactive: -3.63%; that for `Cc1ccc(OP(=O)(Nc2nccs2)Oc2ccc(C)cc2)cc1`, inactive: -4.99%. As for `Cc1ccc(N/C(=N/P(=O)(N2CCOCC2)N2CCOCC2)N2CCOCC2)cc1`, the figure is inactive: 6.61%; as for `NC(=O)c1cc([N+](=O)[O-])cc([N+](=O)[O-])c1N`, inactive: 4.7%; as for `Oc1ccccc1CNc1ccccn1`, inactive: 0.252%. The result for `Cc1c2non([O-])c-2c(C)[n+](=O)[n+]1[O-]` reads inactive: 17.9%; that for `CC(C)CC(=O)NC(Sc1ccc(Cl)cc1)C(Cl)(Cl)Cl` (stereo unspecified), inactive: -5.26%; that for `Nc1cc(N)c2nonc2c1[N+](=O)[O-]`, inactive: -3.53%. In the case of `Cc1ccc(NP(=O)(Oc2ccccc2)Oc2ccccc2)nc1`, the activity change, negative = inhibition was inactive: 7.97%. As for `CCc1nc2c(n1)c1c(non1O)c1c2no[n+]1[O-]`, the figure is inactive: 6.56%; as for `O=[N+]([O-])c1cc([N+](=O)[O-])c(CCNc2ccccc2)c([N+](=O)[O-])c1`, inactive: -10%. The result for `O=[N+]([O-])c1cccc2n[nH]nc12` reads inactive: 1.04%; that for `CC(=O)N1C2C3N(C(C)=O)C1C1N(C(C)=O)C(C(N1C(C)=O)N3C(C)=O)N2C(C)=O`, inactive: 3.41%; that for `COc1ccc(C2=NCC(CBr)S2)cc1` (stereo unspecified), inactive: 8.25%.

Regarding `CC1CCN(C(=O)Oc2c(Cl)cc(Cl)c3cccnc23)CC1`, the activity change, negative = inhibition was inactive: 3.2%. The result for `CC(C)=N/N=C(\N)N[N+](=O)[O-]` reads inactive: 20.2%; that for `CN(C)C(=O)OCCc1n(C)cc[n+]1C`, inactive: -11.2%; that for `CCN(/C(=N/P(=O)(N1CCOCC1)N1CCOCC1)N1CCOCC1)c1ccc(OC)cc1`, inactive: -1.94%. The result for `Nc1ccc([As](=O)(O)c2ccc(N)cc2)cc1` reads inactive: 6.69%. As to `C[N+]1=C2C=CC=CC=C2SC12C([N+](=O)[O-])=CC([N+](=O)[O-])=C[C-]2[N+](=O)[O-]` (stereo unspecified), the activity change, negative = inhibition is inactive: -7.88%. The result for `O=C(O)CNc1ccc([As](=O)(O)O)cc1` reads inactive: 2.44%; that for `O=[N+]([O-])c1cccc(NC2=NCC(CBr)S2)c1` (stereo unspecified), inactive: 5.42%; that for `O=[N+]([O-])c1ncn(CCn2ncnc2[N+](=O)[O-])n1`, inactive: 3.23%.
